Measurements reported in patent US20140221287A1 (AstraZeneca / MedImmune, published 2014).

Target: T1, human amylin receptor 3 (AMY3) (human, UniProt P30988 25-474; O60896 24-148)
T1 sequence (looked up) 1: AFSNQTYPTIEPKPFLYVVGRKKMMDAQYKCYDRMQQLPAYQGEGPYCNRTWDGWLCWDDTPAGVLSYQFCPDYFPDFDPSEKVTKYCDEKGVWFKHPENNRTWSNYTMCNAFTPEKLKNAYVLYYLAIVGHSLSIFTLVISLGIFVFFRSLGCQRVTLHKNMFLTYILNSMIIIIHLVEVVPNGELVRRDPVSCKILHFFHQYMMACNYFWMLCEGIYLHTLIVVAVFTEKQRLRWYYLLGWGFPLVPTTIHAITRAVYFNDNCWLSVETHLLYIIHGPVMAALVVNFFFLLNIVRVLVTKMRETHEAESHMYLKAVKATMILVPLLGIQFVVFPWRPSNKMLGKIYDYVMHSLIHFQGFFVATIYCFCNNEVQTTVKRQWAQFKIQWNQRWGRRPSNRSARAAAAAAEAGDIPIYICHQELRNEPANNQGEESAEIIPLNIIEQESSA
T1 sequence (looked up) 2: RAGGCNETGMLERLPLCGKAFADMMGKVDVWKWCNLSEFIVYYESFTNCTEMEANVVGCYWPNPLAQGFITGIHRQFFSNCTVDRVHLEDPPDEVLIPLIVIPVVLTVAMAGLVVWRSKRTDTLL
Assay: cell-based or functional assay

- EC50 (nM), cAMP accumulation (HTRF): 0.005 nM
Binder: KCNTATCATQRLANFLVRSSNNLGPVLPPTNVGSNTY (C-terminal amide (-NH2), also called Compound 1) [Cmpd 1]
